Like-named read-outs stand apart in the source and are kept apart here.
Tests used:
N-BRDT(1) [1] = target: T1, N-BRDT(1) (Homo sapiens, UniProt Q58F21 1-143)
N-BRDT(1) [2] = target: T1, N-BRDT(1); assay: EMSA; EMSA: 20 mM Tris pH 7.5, 100 mM NaCl, 5 mM DTT, 0.5 mM EDTA, 4 C; ITC: 20 mM Tris pH 8.0, 150 mM NaCl, 1 mM EDTA, 1 mM TCEP, 20 C; NMR at 34 C

B1: 66 bp DNA (dsDNA)
DNA 1: CGATATAGTGTAACGGCTATCACATCACGCTTTCACCGTGGAGACCGGGGTTCGACTCCCCGTATC
DNA 2: GATACGGGGAGTCGAACCCCGGTCTCCACGGTGAAAGCGTGATGTGATAGCCGTTACACTATATCG
With B1 the Kd (N-BRDT(1) [1]) was 33 µM and the Kd (N-BRDT(1) [2]) was 29 µM.

B2: 25 bp DNA (dsDNA)
DNA 1: CGAAGTGGCCGAGTGGTCTATGGCG
DNA 2: CGCCATAGACCACTCGGCCACTTCG
In the case of B2, the Kd (N-BRDT(1) [2]) is reported as 52 µM.
